{
  "sequences": {"note": "The chains behind the UniProt entries cited, without tags or fusion partners.", "UniProt Q99714, whole entry": "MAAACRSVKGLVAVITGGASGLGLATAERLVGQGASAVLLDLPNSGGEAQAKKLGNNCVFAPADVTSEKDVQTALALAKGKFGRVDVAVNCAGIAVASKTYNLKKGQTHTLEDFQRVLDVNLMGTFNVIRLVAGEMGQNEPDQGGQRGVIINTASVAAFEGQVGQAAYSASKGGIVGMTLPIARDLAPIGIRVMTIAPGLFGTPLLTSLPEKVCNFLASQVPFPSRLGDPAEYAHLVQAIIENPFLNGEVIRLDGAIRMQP"},
  "source": "PubChem BioAssay AID886",
  "about": "(National Center for Advancing Translational Sciences (NCATS), 2007)",
  "note": "Only a part is listed here, and it is no random draw. Records with an inconclusive call do not appear. Active and inactive are the calls of the source. Calls come from the whole dose curve; as a rule, active = well fitted inhibition curve with a large enough effect; inconclusive = small, poorly fitted or top-dose-only effect; inactive = no such curve, though single readings can be large or run the other way. % is set by controls: 0 for no effect and ±100 for the full control effect.",
  "data": [
    {"biological_target": "3-hydroxyacyl-CoA dehydrogenase type-2 (Homo sapiens) (UniProt Q99714)", "assay": "qHTS Assay for Inhibitors of HADH2 (Hydroxyacyl-Coenzyme A Dehydrogenase, Type II); note: nearly all actives have a fitted effect of over 60% in size", "conditions": "recombinant HADH2, NADH fluorescence, beta-hydroxybutyryl-CoA; at 57.1 µM (top of the series) unless noted", "values": [
      {"smiles": "N#CC1(Nc2ccccc2)CCN(CCc2ccccc2)CC1", "activity change, negative = inhibition": "inactive: -1.24%"},
      {"smiles": "NC1CCCCC1.NP(=O)(O)N(CCCl)CCCl", "activity change, negative = inhibition": "inactive: 3.28% [at 11.4 µM]"},
      {"smiles": "CCOP(=O)(Cl)Cl", "activity change, negative = inhibition": "inactive: -2.31%"},
      {"smiles": "O=C(OC1CN2CCC1CC2)C1c2ccccc2Oc2ccccc21", "note": "(stereo not given)", "activity change, negative = inhibition": "inactive: 11.3%"},
      {"smiles": "Fc1ccccc1NC1CCN(Cc2ccccc2)CC1", "activity change, negative = inhibition": "inactive: -4.76%"},
      {"smiles": "CCC(CO)(C(=O)OC1CN2CCC1CC2)c1ccccc1", "note": "(stereo not given)", "activity change, negative = inhibition": "inactive: 5.37%"},
      {"smiles": "O=C(O)C1(Nc2ccccc2)CCN(Cc2ccccc2)CC1", "activity change, negative = inhibition": "inactive: 10.8% [at 11.4 µM]"},
      {"smiles": "CCOc1ncccc1C(=O)NCC1(N2CCOCC2)CCCCC1", "activity change, negative = inhibition": "inactive: 2.1%"},
      {"smiles": "N/C(=N\\O)c1c(N)no[n+]1[O-]", "activity change, negative = inhibition": "inactive: -0.352%"},
      {"smiles": "ClCCOP(OCCCl)OCCCl", "activity change, negative = inhibition": "inactive: -3.75%"}
    ]}
  ]
}
